Target: T1, UBE2D1 (Homo sapiens (Human), UniProt P51668)
T1 chain: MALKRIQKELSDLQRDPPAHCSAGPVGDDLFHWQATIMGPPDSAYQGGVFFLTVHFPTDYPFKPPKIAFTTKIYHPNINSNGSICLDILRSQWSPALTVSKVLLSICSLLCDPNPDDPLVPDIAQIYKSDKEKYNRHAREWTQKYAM
Experiment: ITC; UbcH7 cells RING1 fragment, UbcH5A cells whole RBR

Kd: > 50 µM
B1: HOIP (protein)
chain: QECAVCGWALPHNRMQALTSCECTICPDCFRQHFTIALKEKHITDMVCPACGRPDLTDDTQLLSYFSTLDIQLRESLEPDAYALFHKKLTEGVLMRD
